Laboratory results published in ChEMBL document CHEMBL1821572, “Discovery of a novel series of selective HCN1 blockers” (Bioorg Med Chem Lett, 2011).

Species: Homo sapiens
Experiment: Selectivity for human HCN1 over human HCN4

**Q.** Which Selectivity ratio does the source give for `COc1ccccc1C(=O)NCC1(N2CCOCC2)CCCCC1` here?
**A.** 10
